Our source for the IC50 values is patent US20110124666A1, “3,4-DIHYDROPYRIMIDINE TRPA1 ANTAGONISTS” (Janssen Pharmaceutica NV a corporation, priority 2008, published 2011).

Amino acid sequences for entries named in this document (tags omitted).
UniProt O75762, whole entry: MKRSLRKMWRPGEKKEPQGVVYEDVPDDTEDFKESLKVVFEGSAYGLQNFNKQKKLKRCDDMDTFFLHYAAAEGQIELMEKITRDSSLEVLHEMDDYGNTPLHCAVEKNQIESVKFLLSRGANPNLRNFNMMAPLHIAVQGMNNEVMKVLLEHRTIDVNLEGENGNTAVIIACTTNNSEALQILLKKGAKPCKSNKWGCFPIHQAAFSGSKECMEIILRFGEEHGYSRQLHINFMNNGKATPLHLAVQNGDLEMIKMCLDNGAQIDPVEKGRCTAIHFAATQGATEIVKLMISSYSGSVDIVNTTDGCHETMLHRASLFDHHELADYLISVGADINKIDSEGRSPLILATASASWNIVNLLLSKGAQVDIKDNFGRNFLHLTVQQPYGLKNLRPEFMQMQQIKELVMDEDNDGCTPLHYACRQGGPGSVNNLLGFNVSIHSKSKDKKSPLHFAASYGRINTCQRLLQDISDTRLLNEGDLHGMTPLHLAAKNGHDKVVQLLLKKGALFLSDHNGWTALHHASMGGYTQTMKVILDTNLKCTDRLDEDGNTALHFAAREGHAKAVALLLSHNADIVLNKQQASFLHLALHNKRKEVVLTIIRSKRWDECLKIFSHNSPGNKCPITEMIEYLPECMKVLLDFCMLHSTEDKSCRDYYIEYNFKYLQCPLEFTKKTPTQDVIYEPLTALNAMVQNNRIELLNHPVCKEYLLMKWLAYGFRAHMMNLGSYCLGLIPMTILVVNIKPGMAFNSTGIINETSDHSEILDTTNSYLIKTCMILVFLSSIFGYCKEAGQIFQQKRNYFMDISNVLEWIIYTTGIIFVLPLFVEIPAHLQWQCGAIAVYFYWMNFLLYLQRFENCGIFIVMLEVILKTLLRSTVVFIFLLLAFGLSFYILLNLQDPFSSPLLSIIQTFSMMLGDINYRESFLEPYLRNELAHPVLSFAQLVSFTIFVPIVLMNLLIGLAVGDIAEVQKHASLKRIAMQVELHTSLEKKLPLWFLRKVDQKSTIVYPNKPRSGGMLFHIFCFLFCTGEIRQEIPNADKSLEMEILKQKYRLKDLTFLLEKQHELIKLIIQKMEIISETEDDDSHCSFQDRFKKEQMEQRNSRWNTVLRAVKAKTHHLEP

This test deals with hTRPA1 (Homo sapiens, UniProt O75762). The test is described as follows: Ca2+ fluorometry TRPA1 antagonism in hTRPA1/TREx-HEK293 cells (FDSS). Particulars: read-out: IC50 hTRPA1, 11H-dibenzo[b,e]azepine-10-carboxylic acid methyl ester as TRPA1 agonist (25 nM), hTRPA1-HEK cells, Fluo4-AM.

For `COc1ccc(Oc2cccc(C3NC(=S)NC4=C3C(=O)c3ccccc34)c2)cc1` (stereo not shown) [Co. No. 20], the concentration for half-maximal inhibition (IC50) turned out to be 1460 nM.
